Earlier results, collected in patent publication US11253508B2, “PPARy agonist for treatment of progressive supranuclear palsy” (Coherus Biosciences, Inc., priority 2017, dated 2022).

Conditions: in words; cited from earlier work

CN(CCOc1ccc(CC2SC(=O)NC2=O)cc1)c1ccccn1 (stereo not shown) [rosiglitazone, reference compound]
crossing of the blood brain barrier: does not cross the blood-brain-barrier
